# Membrane permeability of cyclic peptides

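Lipid, pH, incubation time, direction and concentration are not recorded in the data file. The list need not hold all peptides of the study. Entries at the database's floor value (log10 P of -10) are not listed.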

PAMPA is the parallel artificial membrane permeability assay, which has no cells and reads passive diffusion. Values are log10 P with P in cm/s, so -5 is more permeable than -7.

| SMILES | PAMPA (log10 cm/s) |
|---|---|
| CC(C)C[C@@H]1NC(=O)[C@H](CC(C)C)N(C)C(=O)C[C@H](Cc2ccccc2)NC(=O)[C@H]2CCCN2C(=O)[C@H](Cc2ccccc2)NC(=O)[C@H](CC(C)C)N(C)C(=O)[C@@H]2CCCN2C1=O | -5.17 |
| CC(C)C[C@@H]1C(=O)N[C@@H](Cc2ccccc2)C(=O)N2CCC[C@H]2C(=O)N[C@@H](Cc2ccccc2)CC(=O)N(C)[C@@H](CC(C)C)C(=O)N[C@H](CC(C)C)C(=O)N2CCC[C@H]2C(=O)N1C | -5.50 |
| CC(C)C[C@@H]1C(=O)N(Cc2ccccc2)CC(=O)N2CCC[C@@H]2C(=O)N[C@H](CC(C)C)C(=O)N[C@@H](Cc2ccccc2)C(=O)N(C)[C@H](C)C(=O)N1C | -5.26 |
| CC(C)C[C@H]1C(=O)N(Cc2ccccc2)CC(=O)N2CCC[C@@H]2C(=O)N(C)[C@@H](CC(C)C)C(=O)N[C@@H](Cc2ccccc2)C(=O)N2CCC[C@@H]2C(=O)N[C@@H](C)C(=O)N1C | -5.60 |
| CC(C)C[C@@H]1NC(=O)[C@H](CC(C)C)N(C)C(=O)[C@H](C)NC(=O)[C@H](Cc2ccccc2)NC(=O)[C@@H](CC(C)C)NC(=O)[C@H]2CCCN2C1=O | -5.53 |
| CC(C)C[C@@H]1C(=O)N[C@@H](Cc2ccccc2)C(=O)N2CCC[C@@H]2C(=O)N[C@H](C)C(=O)N(C)[C@H](CC(C)C)C(=O)N[C@@H](Cc2ccccc2)CC(=O)N2CCC[C@@H]2C(=O)N1C | -5.91 |
| CC(C)C[C@@H]1C(=O)N[C@H](CC(C)C)C(=O)N2CCC[C@@H]2C(=O)N(C)[C@H](CC(C)C)C(=O)N[C@@H](Cc2ccccc2)C(=O)N2CCC[C@@H]2C(=O)N(C)[C@H](C)C(=O)N1C | -5.36 |
| CCCN1CC(=O)N[C@@H](CC(C)C)C(=O)N(Cc2ccccc2)CC(=O)N2CCC[C@H]2C(=O)N(C)[C@@H](CC(C)C)C(=O)N[C@@H](Cc2ccccc2)C(=O)N2CCC[C@H]2C1=O | -5.42 |
| CC(C)C[C@@H]1NC(=O)[C@@H]2CCCN2C(=O)CN(Cc2ccccc2)C(=O)[C@@H](CC(C)C)N(C)C(=O)[C@@H](C)NC(=O)[C@H](Cc2ccccc2)NC1=O | -6.09 |
| CC(C)C[C@@H]1NC(=O)C[C@H](Cc2ccccc2)NC(=O)[C@H]2CCCN2C(=O)[C@H](Cc2ccccc2)NC(=O)[C@@H](CC(C)C)NC(=O)[C@@H]2CCCN2C(=O)[C@@H](CC(C)C)N(C)C1=O | -5.52 |
| CCCN1CC(=O)N(Cc2ccccc2)CC(=O)N(C)[C@H](CC(C)C)C(=O)N2CCC[C@@H]2C(=O)N[C@H](CC(C)C)C(=O)N[C@@H](Cc2ccccc2)C(=O)N2CCC[C@H]2C1=O | -6.27 |
| CC(C)C[C@@H]1C(=O)N2CCC[C@H]2C(=O)N(Cc2ccccc2)CC(=O)N[C@@H](Cc2ccccc2)C(=O)N2CCC[C@H]2C(=O)N[C@@H](C)C(=O)N(C)[C@@H](CC(C)C)C(=O)N1C | -5.61 |
| CC(C)C[C@H]1NC(=O)[C@@H]2CCCN2C(=O)CN(Cc2ccccc2)C(=O)[C@H](CC(C)C)N(C)C(=O)[C@@H](C)N(C)C(=O)[C@@H]2CCCN2C(=O)[C@H](Cc2ccccc2)NC1=O | -6.46 |
| CC(C)C[C@@H]1NC(=O)[C@@H](C)NC(=O)[C@H](Cc2ccccc2)NC(=O)[C@H](CC(C)C)N(C)C(=O)[C@H]2CCCN2C(=O)[C@H](CC(C)C)NC1=O | -5.64 |
| CC(C)C[C@@H]1NC(=O)CN(Cc2ccccc2)C(=O)[C@@H](C)N(C)C(=O)[C@@H]2CCCN2C(=O)[C@H](Cc2ccccc2)NC(=O)[C@H](CC(C)C)N(C)C(=O)[C@H]2CCCN2C1=O | -5.35 |
| CC(C)C[C@@H]1NC(=O)[C@@H](C)N(C)C(=O)[C@H]2CCCN2C(=O)[C@H](Cc2ccccc2)NC(=O)[C@@H](CC(C)C)N(C)C(=O)[C@@H]2CCCN2C(=O)[C@H](CC(C)C)NC1=O | -5.29 |
| CCCN1CC(=O)N(C)[C@H](CC(C)C)C(=O)N[C@@H](CC(C)C)C(=O)N2CCC[C@H]2C(=O)N(C)[C@H](CC(C)C)C(=O)N[C@@H](Cc2ccccc2)C(=O)N2CCC[C@@H]2C1=O | -5.07 |
| CC(C)C[C@@H]1NC(=O)[C@@H](CC(C)C)N(C)C(=O)C[C@H](Cc2ccccc2)NC(=O)[C@H]2CCCN2C(=O)[C@H](Cc2ccccc2)NC(=O)[C@@H](CC(C)C)NC(=O)[C@H]2CCCN2C1=O | -5.78 |
| CC(C)C[C@@H]1C(=O)N[C@@H](Cc2ccccc2)C(=O)N(C)[C@@H](C)C(=O)N[C@H](CC(C)C)C(=O)N[C@@H](Cc2ccccc2)CC(=O)N2CCC[C@H]2C(=O)N1C | -5.86 |
| CCCN1CC(=O)N[C@H](CC(C)C)C(=O)N[C@H](CC(C)C)C(=O)N2CCC[C@@H]2C(=O)N(C)[C@H](CC(C)C)C(=O)N[C@@H](Cc2ccccc2)C1=O | -6.02 |

Repeated from above, the 2 entries with the highest PAMPA:

{"smiles": "CCCN1CC(=O)N(C)[C@H](CC(C)C)C(=O)N[C@@H](CC(C)C)C(=O)N2CCC[C@H]2C(=O)N(C)[C@H](CC(C)C)C(=O)N[C@@H](Cc2ccccc2)C(=O)N2CCC[C@@H]2C1=O", "PAMPA (log10 cm/s)": "-5.07"}
{"smiles": "CC(C)C[C@@H]1NC(=O)[C@H](CC(C)C)N(C)C(=O)C[C@H](Cc2ccccc2)NC(=O)[C@H]2CCCN2C(=O)[C@H](Cc2ccccc2)NC(=O)[C@H](CC(C)C)N(C)C(=O)[C@@H]2CCCN2C1=O", "PAMPA (log10 cm/s)": "-5.17"}

Collected by the curators of CycPeptMPDB (Li et al. 2023) from Townsend et al. 2020, doi:10.26434/chemrxiv.13335941.v1.